Measurements as given in patent US5087627A, “Agent for treatment of disorders of the cerebro-neural transmission system” (Santen Pharmaceutical Co., Ltd., priority 1989, dated 1992).

Amino acid sequences for entries named in this document (tags omitted). Residues count along the entry.
UniProt G1SYA7, 1-469: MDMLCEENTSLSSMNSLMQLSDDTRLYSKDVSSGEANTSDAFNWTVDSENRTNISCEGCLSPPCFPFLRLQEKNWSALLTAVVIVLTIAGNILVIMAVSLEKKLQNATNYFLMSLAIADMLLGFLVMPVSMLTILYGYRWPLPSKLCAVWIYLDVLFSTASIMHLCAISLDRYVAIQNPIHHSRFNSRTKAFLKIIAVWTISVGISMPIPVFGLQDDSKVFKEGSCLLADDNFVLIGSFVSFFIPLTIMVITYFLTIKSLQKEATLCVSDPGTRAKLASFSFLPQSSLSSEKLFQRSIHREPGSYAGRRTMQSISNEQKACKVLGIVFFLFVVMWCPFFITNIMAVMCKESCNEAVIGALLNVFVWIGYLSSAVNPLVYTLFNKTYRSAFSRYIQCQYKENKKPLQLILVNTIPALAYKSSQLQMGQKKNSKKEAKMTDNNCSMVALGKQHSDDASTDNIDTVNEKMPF

Biological target: 5-HT2 receptor (Oryctolagus cuniculus, UniProt G1SYA7)
Assay: antagonistic test against 5-HT2 using vessel (thoracic aorta) of rabbit, 5-HT-induced contraction
Parameters: species or system tissue, rabbit (Japanese white)
Conditions: read-out: IC50 (concentration which can inhibit 50% of the contraction caused by 5-HT alone), rabbit thoracic aorta strips, 5-HT 10^-6 M, 30 minutes pre-treatment, 37° C.

| Compound | IC50 | IC50 (dihydrochloride) |
| --- | --- | --- |
| COc1ccc(CCN2CCN(C(Cc3ccccc3)c3ccccc3)CC2)cc1OC (racemic) | 280 nM | – |
| COc1ccc(CCN2CCN(C(Cc3ccccc3)c3ccccc3)CC2)cc1OC (single isomer, unassigned) [compound No. 5] | – | 210 nM |
| COc1ccc(CCN2CCN(C(Cc3ccccc3)c3ccccc3)CC2)cc1OC (single isomer, unassigned) [compound No. 6] | – | 2000 nM |

Where two headings read alike, the source gives them in different places. Some compounds may have been tested in ways that are not shown here.
